The target of assay [1] is D2 in pig anterior pituitary homogenates (Sus scrofa, UniProt A0ACM8QMZ9).
Another assay deals with human D2 (long) (Homo sapiens, UniProt P14416). Put plainly: D2 dissociation constants, human D2 receptor expressed in GH(4)ZR(7) cells.
Assay [2] has as its target human D4 dopamine receptor (Homo sapiens, UniProt P21917, DEL271-302/N396T/P18R). Put plainly: [3H]spiperone binding to membranes of COS-7 cells transfected with human D4 receptor construct. Particulars: read-out: D4Ki.
The target of another assay is rat D2 (long) (Rattus norvegicus, UniProt P61169). Put plainly: D2 dissociation constants, rat D2 (long).

Sequences of proteins named here, by UniProt entry; tags and fusion partners are left off. A line that says so, or that is headed by a name, gives the form on record, which may keep a tag or linker. Residues count along the entry.
UniProt A0ACM8QMZ9, 1-443: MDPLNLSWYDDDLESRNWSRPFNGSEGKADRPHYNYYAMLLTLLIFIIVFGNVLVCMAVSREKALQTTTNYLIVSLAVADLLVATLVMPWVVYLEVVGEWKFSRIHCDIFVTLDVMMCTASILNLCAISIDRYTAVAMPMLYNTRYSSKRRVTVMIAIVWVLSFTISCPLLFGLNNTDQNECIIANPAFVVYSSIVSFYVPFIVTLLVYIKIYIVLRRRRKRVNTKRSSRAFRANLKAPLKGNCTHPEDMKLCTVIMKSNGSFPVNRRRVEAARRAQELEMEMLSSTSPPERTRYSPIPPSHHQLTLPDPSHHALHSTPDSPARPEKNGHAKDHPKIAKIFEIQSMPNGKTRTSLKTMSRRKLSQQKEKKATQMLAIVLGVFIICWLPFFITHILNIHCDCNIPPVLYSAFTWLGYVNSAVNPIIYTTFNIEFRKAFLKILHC
UniProt P14416, whole entry: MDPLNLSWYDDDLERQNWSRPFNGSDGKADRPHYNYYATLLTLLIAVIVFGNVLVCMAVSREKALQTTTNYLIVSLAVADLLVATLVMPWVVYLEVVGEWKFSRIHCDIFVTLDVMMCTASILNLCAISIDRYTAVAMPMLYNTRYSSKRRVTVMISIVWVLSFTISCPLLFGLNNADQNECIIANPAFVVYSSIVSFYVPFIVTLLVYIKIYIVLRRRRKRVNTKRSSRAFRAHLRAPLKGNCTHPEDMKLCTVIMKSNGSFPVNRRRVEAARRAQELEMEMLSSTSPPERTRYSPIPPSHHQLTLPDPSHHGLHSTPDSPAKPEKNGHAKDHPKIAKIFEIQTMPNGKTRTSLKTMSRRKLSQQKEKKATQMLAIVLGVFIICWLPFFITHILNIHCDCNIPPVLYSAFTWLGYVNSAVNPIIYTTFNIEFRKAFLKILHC
UniProt P21917, with tags, fused parts or gaps P18R/DEL271-302/N396T: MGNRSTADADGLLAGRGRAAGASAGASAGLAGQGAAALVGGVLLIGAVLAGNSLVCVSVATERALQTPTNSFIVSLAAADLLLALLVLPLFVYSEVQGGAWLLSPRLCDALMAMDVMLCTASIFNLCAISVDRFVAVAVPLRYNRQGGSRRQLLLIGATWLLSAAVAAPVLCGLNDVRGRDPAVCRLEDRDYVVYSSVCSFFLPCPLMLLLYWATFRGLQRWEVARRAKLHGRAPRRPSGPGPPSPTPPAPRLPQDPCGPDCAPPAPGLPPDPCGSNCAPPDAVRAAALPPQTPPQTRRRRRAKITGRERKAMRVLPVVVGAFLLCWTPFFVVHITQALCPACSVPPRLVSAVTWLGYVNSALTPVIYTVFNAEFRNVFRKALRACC
UniProt P61169, whole entry: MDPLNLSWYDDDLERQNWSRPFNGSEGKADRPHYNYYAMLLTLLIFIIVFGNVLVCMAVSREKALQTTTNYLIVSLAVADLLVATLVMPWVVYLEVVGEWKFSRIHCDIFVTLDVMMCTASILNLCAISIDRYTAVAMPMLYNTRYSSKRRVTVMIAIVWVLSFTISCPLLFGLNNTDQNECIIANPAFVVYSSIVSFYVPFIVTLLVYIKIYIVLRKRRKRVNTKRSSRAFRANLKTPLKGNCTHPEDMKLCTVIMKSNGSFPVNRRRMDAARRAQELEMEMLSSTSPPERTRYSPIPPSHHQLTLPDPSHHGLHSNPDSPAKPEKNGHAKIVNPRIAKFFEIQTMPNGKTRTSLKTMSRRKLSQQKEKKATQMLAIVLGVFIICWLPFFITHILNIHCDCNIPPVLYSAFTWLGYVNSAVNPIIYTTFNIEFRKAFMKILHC

Results on four compounds are retold here after patent US7053189B2 (Oregon Health & Sciences University, priority 1990, dated 2006).

In the case of `OCCN1CCN(CCCN2c3ccccc3Sc3ccc(C(F)(F)F)cc32)CC1`, the “[formula] (ratio D2Ki to D4Ki)” value in assay [1] came out at 0.01.
At human D2 (long), `CCN1CCC[C@H]1CNC(=O)c1c(O)c(Cl)cc(Cl)c1OC` returned a Ki of 1.6 nM.
Consider `CCN1CCC[C@H]1CNC(=O)c1cc(S(N)(=O)=O)ccc1OC`, for which the Ki in assay [2] is 63 nM.
`Oc1cc2c(cc1O)C(c1ccccc1)CNCC2` (stereo not shown) [SKF-38393] returned a Ki on rat D2 (long) of 9560 nM.
